Experiment [1] addresses T1, Gal4 DNA binding domain fused to the LBD of LXRβ in HEK293 cells (Homo sapiens (Human), UniProt P55055). As to the kind of experiment: cell-based.
Experiment [2] addresses T1, Gal4 DNA binding domain fused to the LBD of LXRβ in HEK293 cells. The experiment in a line: cell-based. The source holds these as a separate data set.
The target in experiment [3] is T2, LXR β LBD protein (Homo sapiens (Human), UniProt P55055). The experiment in a line: biochemical. The experiment is classed as biochemical. To be noted: for EC50: read-out: FRET LXRβ EC50.
The target of experiment [4] is T3, LXR α LBD protein (Homo sapiens (Human), UniProt Q13133). The experiment in a line: LXR α radioligand binding assay (SPA, competition with [3H]TO901317). To be noted: read-out: LXRα Binding Ki.
In experiment [5] the target is Gal4 DNA binding domain fused to the LBD of LXRα in HEK293 cells (Homo sapiens (Human), UniProt Q13133). As to the kind of experiment: LXR luciferase transcriptional reporter gene assay, agonist mode, LXRα. As to conditions: for Cell LXRα efficacy: agonist mode. The experiment is classed as cell-based. On the technique in general: Reporter assays use an easily measured gene product as a stand-in for the process of interest.

The chains behind the UniProt entries cited, without tags or fusion partners. Residues count along the entry.
UniProt P55055, 222-460 limits assumed: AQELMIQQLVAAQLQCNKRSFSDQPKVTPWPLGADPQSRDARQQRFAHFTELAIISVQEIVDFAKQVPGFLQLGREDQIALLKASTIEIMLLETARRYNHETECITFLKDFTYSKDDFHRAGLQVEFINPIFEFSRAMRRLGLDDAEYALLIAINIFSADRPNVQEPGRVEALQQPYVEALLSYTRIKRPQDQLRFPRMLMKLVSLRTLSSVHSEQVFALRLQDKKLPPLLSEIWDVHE
UniProt Q13133, 209-447: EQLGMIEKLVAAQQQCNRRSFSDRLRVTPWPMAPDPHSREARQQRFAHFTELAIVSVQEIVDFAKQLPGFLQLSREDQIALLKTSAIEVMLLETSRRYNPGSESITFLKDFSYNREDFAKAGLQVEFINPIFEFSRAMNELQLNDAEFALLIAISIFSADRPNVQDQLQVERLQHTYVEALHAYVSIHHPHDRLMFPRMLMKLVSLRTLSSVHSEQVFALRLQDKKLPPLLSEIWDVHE

Experiment [6] concerns the target T3, LXR α LBD protein. As to conditions: read-out: FRET LXRα IC50; antagonist mode, 250 nM T0901317, coactivator recruitment TR-FRET. (In general: TR-FRET usually uses a lanthanide donor and a delayed reading to cut background.)
Experiment [7] deals with T3, LXR α LBD protein. As to the kind of experiment: Human LXRα coactivator recruitment FRET assay, agonist mode. Type of experiment: biochemical.
Experiment [8] has as its target T2, LXR β LBD protein. To be noted: read-out: FRET LXRβ IC50; antagonist mode, 250 nM T0901317, coactivator recruitment TR-FRET.
Setting [9] is: Biological Test Example 3, agonist mode.

Like-named read-outs stand apart in the source and are kept apart here. Where only a bound is given, the exact number is not on record here.

By IC50 is commonly meant the point on the concentration scale where inhibition reaches its midpoint. By EC50 is commonly meant the midpoint of the concentration-response curve. A word on the Ki: it is the dissociation constant of the complex between target and ligand, obtained from inhibition or displacement.

Compound `CS(=O)(=O)c1cccc(N2CCN(CC3CCN(CC(F)(F)F)CC3)[C@@H](c3ccccc3)C2)c1` (single isomer, unassigned) [48-52] returned an IC50 in experiment [1] of 843 nM. This compound also yielded a concentration for a half-maximal effect (EC50) in experiment [2] of 129 nM. The “Cell LXRβ efficacy” value in experiment [2] (Biological Test Example 2, agonist mode) turned out to be 13%. In experiment [3] (setting [9]), the “FRET LXRβ efficacy” value is 30% and the half-maximal effective concentration (EC50) was 68 nM.

As for `CC(C)[C@@H]1CN(c2ccc(F)c(S(C)(=O)=O)c2)CCN1C(=O)OCC(F)(F)F` [5-4, 2,2,2-trifluoroethyl (R)-4-(4-fluoro-3-(methylsulfonyl)phenyl)-2-isopropylpiperazine-1-carboxylate], the Ki in experiment [4] turned out to be 2440 nM. Further, in experiment [5], the EC50 worked out at 4.91 µM and the “Cell LXRα efficacy” value came out at 40%.

For `CC(C)[C@@H]1CN(c2cccc(S(C)(=O)=O)c2)CCN1C(=O)OCC(C)(C)C` [5-6, neopentyl (R)-2-isopropyl-4-(3-(methylsulfonyl)phenyl)piperazine-1-carboxylate], in experiment [1], the IC50 turned out to be 2960 nM. Moreover, the EC50 in experiment [2] was found to be 392 nM. Further, the “Cell LXRβ efficacy” value in experiment [2] (agonist mode) is listed as 39%. For the same compound, in experiment [3] (agonist mode), the “FRET LXRβ efficacy” value was 58% and the concentration giving a half-maximal response (EC50) was 14 nM.

`CC(C)[C@@H]1CN(c2cccc(S(C)(=O)=O)c2)CCN1c1ncccn1` [7-2, (R)-2-(2-isopropyl-4-(3-(methylsulfonyl)phenyl)piperazin-1-yl)pyrimidine]: the IC50 in experiment [1] amounted to 1620 nM. In experiment [2], this compound had an EC50 of more than 20000 nM. For the same compound, in experiment [3] (agonist mode), the “FRET LXRβ efficacy” value was 31% and the EC50 is 123 nM.

In turn, `CC(C)[C@@H]1CN(c2cccc(S(C)(=O)=O)c2)CCN1c1ccnc(C(F)(F)F)n1` [7-50, (R)-4-(2-isopropyl-4-(3-(methylsulfonyl)phenyl)piperazin-1-yl)-2-(trifluoromethyl)pyrimidine] showed a half-maximal inhibitory concentration (IC50) in experiment [1] of 3740 nM. The EC50 in experiment [2] was 257 nM. Further, the “Cell LXRβ efficacy” value in experiment [2] (agonist mode) is reported as 37%. In experiment [3] (agonist mode), the “FRET LXRβ efficacy” value is listed as 84% and the EC50 turned out to be 19 nM.

Consider `CC(C)[C@@H]1CN(c2ccc(F)c(S(C)(=O)=O)c2)CCN1c1nccc(OCC(F)(F)F)n1` [44-3, (R)-2-(4-(4-fluoro-3-(methylsulfonyl)phenyl)-2-isopropylpiperazin-1-yl)-4-(2,2,2-trifluoroethoxy)pyrimidine], for which, in experiment [4], the Ki worked out at 809 nM.

Regarding `Cc1nc(C(F)(F)F)ccc1CN1CCN(c2cccc(S(C)(=O)=O)c2)CC1c1ccccc1` (stereo not shown) [46-47, 1-((2-methyl-6-(trifluoromethyl)pyridin-3-yl)methyl)-4-(3-(methylsulfonyl)phenyl)-2-phenylpiperazine], the IC50 in experiment [6] and in experiment [8] was more than 50 µM throughout. In addition, the EC50 in experiment [7] was 4.52 µM; in experiment [3] (agonist mode), 817 nM. The “FRET LXRβ efficacy” value in experiment [3] (agonist mode) worked out at 54%.

On to `Cc1cc(CN2CCN(c3cccc(S(C)(=O)=O)c3)CC2c2ccccc2)cnc1C(F)(F)F` (stereo not shown) [46-48, 1-((5-methyl-6-(trifluoromethyl)pyridin-3-yl)methyl)-4-(3-(methylsulfonyl)phenyl)-2-phenylpiperazine], for which the IC50 in experiment [6] and in experiment [8] was more than 50 µM throughout. Besides, the EC50 in experiment [2] was determined as 957 nM; in experiment [7], 3.01 µM; in experiment [3] (agonist mode) it was 443 nM. The “Cell LXRβ efficacy” value in experiment [2] (agonist mode) came to 34%. Also, the “FRET LXRβ efficacy” value in experiment [3] (agonist mode) is given as 55%.

On to `CS(=O)(=O)c1ccc(F)c(N2CCN(Cc3ccc(C(F)(F)F)nc3)C(c3ccccc3)C2)c1` (stereo not shown) [46-50, 4-(2-fluoro-5-(methylsulfonyl)phenyl)-2-phenyl-1-((6-(trifluoromethyl)pyridin-3-yl)methyl)piperazine], for which the half-maximal inhibitory concentration (IC50) in experiment [8] was more than 50 µM. In experiment [3] (agonist mode), the “FRET LXRβ efficacy” value is reported as 67% and the EC50 came out at 1910 nM.

As for `COC(=O)c1ccc(N2CCN(Cc3ccc(C(F)(F)F)nc3)C(c3ccccc3)C2)cc1S(C)(=O)=O` (stereo not shown) [46-59, methyl 2-(methylsulfonyl)-4-(3-phenyl-4-((6-(trifluoromethyl)pyridin-3-yl)methyl)piperazin-1-yl)benzoate], the IC50 in experiment [8] was more than 50 µM. Also, in experiment [3] (agonist mode), the “FRET LXRβ efficacy” value amounted to 70% and the concentration for a half-maximal effect (EC50) came out at 3100 nM.

On to `CS(=O)(=O)c1cccc(N2CCN(Cc3ccc(C(F)(F)F)cn3)[C@H](c3ccccc3)C2)c1` [46-63, (R)-4-(3-(methylsulfonyl)phenyl)-2-phenyl-1-((5-(trifluoromethyl)pyridin-2-yl)methyl)piperazine], for which, in experiment [7], the EC50 is 12.4 µM and the “FRET LXRα efficacy” value came to 30%. Moreover, in experiment [5] (read-out: Cell LXRα EC50), the EC50 is more than 20 µM.

As for `CS(=O)(=O)c1cccc(N2CCN(Cc3ccc(C(F)(F)F)cn3)[C@@H](c3ccccc3)C2)c1` [46-64, (S)-4-(3-(methylsulfonyl)phenyl)-2-phenyl-1-((5-(trifluoromethyl)pyridin-2-yl)methyl)piperazine], the inhibition constant (Ki) in experiment [4] is more than 3330 nM. In addition, the half-maximal effective concentration (EC50) in experiment [7] was 10.4 µM; in experiment [5] (read-out: Cell LXRα EC50), more than 20 µM. For the same compound, the “FRET LXRα efficacy” value in experiment [7] was found to be 23%.

In turn, `CS(=O)(=O)c1cccc(N2CCN(Cc3ccc(C(F)(F)F)o3)[C@H](c3ccccc3)C2)c1` [46-65, (R)-4-(3-(methylsulfonyl)phenyl)-2-phenyl-1-((5-(trifluoromethyl)furan-2-yl)methyl)piperazine] came in with a half-maximal effective concentration (EC50) in experiment [7] of more than 50 µM.

`CS(=O)(=O)c1cccc(N2CCN(Cc3ccc(C(F)(F)F)o3)[C@@H](c3ccccc3)C2)c1` [46-66, (S)-4-(3-(methylsulfonyl)phenyl)-2-phenyl-1-((5-(trifluoromethyl)furan-2-yl)methyl)piperazine]: the Ki in experiment [4] is 1410 nM. In addition, the EC50 in experiment [7] was found to be 1.66 µM; in experiment [5] (read-out: Cell LXRα EC50), 4.58 µM. Also, in experiment [7], the “FRET LXRα efficacy” value turned out to be 20%.

On to `CC1(C)CCC(O)(CN2CCN(c3cccc(S(C)(=O)=O)c3)C[C@H]2c2ccccc2)CC1` [53-2, (R)-4,4-dimethyl-1-((4-(3-(methylsulfonyl)phenyl)-2-phenylpiperazin-1-yl)methyl)cyclohexan-1-ol], for which, in experiment [4] (Biological Test Example 1), the inhibition constant (Ki) came to 1760 nM. For the same compound, in experiment [5] (read-out: Cell LXRα EC50), the EC50 worked out at 6.74 µM.

`CC(C)[C@@H]1CN(c2ccc(F)c(S(C)(=O)=O)c2)CCN1C(=O)OC1CC(F)(F)C1(F)F` (stereo partly drawn) [Cpd No 5-1, 2,2,3,3-tetrafluorocyclobutyl (2R)-4-(4-fluoro-3-(methylsulfonyl)phenyl)-2-isopropylpiperazine-1-carboxylate]: in experiment [4], the Ki was 483 nM. In experiment [5], a half-maximal effect (EC50) was put at 1.05 µM and the “Cell LXRα efficacy” value came to 79%.

With `Cc1cc(C)nc(N2CCN(c3cccc(S(C)(=O)=O)c3)C[C@H]2C(C)C)n1` [Cpd No 7-3, (R)-2-(2-isopropyl-4-(3-(methylsulfonyl)phenyl)piperazin-1-yl)-4,6-dimethylpyrimidine], the values for the EC50 in experiment [2] and in experiment [3] (agonist mode) were 1130 nM and 48 nM, respectively. For the same compound, the “Cell LXRβ efficacy” value in experiment [2] (agonist mode) was found to be 20%. In experiment [3] (agonist mode), the “FRET LXRβ efficacy” value was found to be 51%.

Regarding `CC(C)[C@@H]1CN(c2cccc(S(C)(=O)=O)c2)CCN1c1ncc(Cl)cn1` [Cpd No 7-4, (R)-5-chloro-2-(2-isopropyl-4-(3-(methylsulfonyl)phenyl)piperazin-1-yl)pyrimidine], the IC50 in experiment [1] is 6580 nM. Also, it took 185 nM to reach a half-maximal effect in experiment [2] (EC50). In addition, in experiment [2] (agonist mode), the “Cell LXRβ efficacy” value came out at 46%. For the same compound, in experiment [3] (agonist mode), the “FRET LXRβ efficacy” value is 84% and the EC50 is 17 nM.

Regarding `CC(C)[C@@H]1CN(c2cccc(S(C)(=O)=O)c2)CCN1c1ccc(C(F)(F)F)cn1` [Cpd No 7-35, (R)-2-isopropyl-4-(3-(methylsulfonyl)phenyl)-1-(5-(trifluoromethyl)pyridin-2-yl)piperazine], in experiment [1], the concentration for half-maximal inhibition (IC50) was more than 10000 nM. Moreover, the EC50 is 39 nM in experiment [2] and 4 nM in experiment [3] (agonist mode). In experiment [2] (agonist mode), the “Cell LXRβ efficacy” value was 96%. For the same compound, the “FRET LXRβ efficacy” value in experiment [3] (agonist mode) amounted to 171%.

`CS(=O)(=O)c1cccc(N2CCN(Cc3ccc(C(F)(F)F)c(Cl)c3)[C@@H](Cc3ccccc3)C2)c1` [Cpd No 45-1, (S)-2-benzyl-1-(3-chloro-4-(trifluoromethyl)benzyl)-4-(3-(methylsulfonyl)phenyl)piperazine]: the EC50 in experiment [2] turned out to be 1170 nM; in experiment [7], 0.627 µM. For the same compound, the “Cell LXRβ efficacy” value in experiment [2] (agonist mode) is listed as 42%.

Take `CS(=O)(=O)c1cc(N2CCN(Cc3ccc(C(F)(F)F)nc3)C(c3ccccc3)C2)ccc1CO` (stereo not shown) [Cpd No 47-1, (2-(methylsulfonyl)-4-(3-phenyl-4-((6-(trifluoromethyl)pyridin-3-yl)methyl)piperazin-1-yl)phenyl)methanol]: the EC50 in experiment [2] stood at 5140 nM. In addition, the “Cell LXRβ efficacy” value in experiment [2] (agonist mode) is 39%. The 50% inhibitory concentration (IC50) in experiment [8] is more than 50 µM. In experiment [3] (agonist mode), the “FRET LXRβ efficacy” value came to 63% and the EC50 stood at 259 nM.

As to `CC1(C)CCC(O)(CN2CCN(c3cccc(S(C)(=O)=O)c3)C[C@@H]2c2ccccc2)CC1` [Cpd No 53-1, (S)-4,4-dimethyl-1-((4-(3-(methylsulfonyl)phenyl)-2-phenylpiperazin-1-yl)methyl)cyclohexan-1-ol], the inhibition constant Ki in experiment [4] (Biological Test Example 1) was 971 nM. Also, in experiment [5] (read-out: Cell LXRα EC50), the EC50 was found to be 3.03 µM.

The values above are taken from patent US10144715B2, “Piperazine derivatives as liver X receptor modulators” (priority 2014, dated 2018).
